# Measured affinities in a library of Ab-14 light chain variants

The measurements come from Engelhart et al. 2022 (doi:10.1038/s41597-022-01779-4) through the FLAb antibody collection.

Antigen: PDVDLGDISGINAS, a 14-residue peptide of the SARS-CoV-2 spike HR2 region.

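Variants in AAYL50 differ from the parent at up to three CDR positions; double and triple changes were sampled at random. The scFvs were displayed on barcoded MATa yeast, the peptide on MATalpha yeast. Mating (16 h, 30 °C) was followed by selection of diploids and sequencing of their barcodes. A regression on co-assayed BCL2-family reference pairs converts the normalised counts of each replicate to an apparent Kd. Mating was done three times.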

Parent scFv Ab-14: VH joined to VL by a (GGGGS)3 linker. Changes lie in the light chain CDRs alone.
VH: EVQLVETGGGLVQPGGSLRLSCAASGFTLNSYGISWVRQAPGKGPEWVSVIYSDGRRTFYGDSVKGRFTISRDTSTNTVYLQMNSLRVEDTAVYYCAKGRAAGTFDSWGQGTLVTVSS
VL: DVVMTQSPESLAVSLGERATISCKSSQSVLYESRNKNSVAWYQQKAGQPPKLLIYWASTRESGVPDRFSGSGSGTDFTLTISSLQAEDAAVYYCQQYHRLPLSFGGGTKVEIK

The parent's light chain CDRs are KSSQSVLYESRNKNSVA, WASTRES, QQYHRLPLS; each variant's own CDRs replace them letter for letter.
Numbers give log10(Kd / nM), so 0 is 1 nM and 3 is 1 µM. Smaller is tighter.
"ND" marks a missing value. The strain was present, yet no cells mated with the target were sequenced in that replicate, which points to weak or no binding.
Background: pairings of library AAYL50 with three empty control strains gave a value in 18% of cases (median 4.19, 5th percentile 2.99). Values in that range, when seen in few replicates, are hard to tell from nonspecific mating. For each scFv, signals with the empty controls are counted beside the result, with their mean in brackets.
In this assay the parent's reference entry averaged 0.65; its copy inside this library read 1.68.

| CDR-L1 | CDR-L2 | CDR-L3 | replicates, log10 nM | signal with controls |
|---|---|---|---|---|
| KSSQSVLYESRNKNSVA | WASTRES | QQYHRRTLS | ND ND ND | 0 of 9 |
| KSSQPVLYESRAKNDVA | WASTRES | QQYHRLPLS | 2.67 2.55 2.62 | 3 of 9 (4.10) |
| KSSQSVLYESRNKNSVA | WASTRES | GQYCRLPRS | 4.58 5.13 ND | 0 of 9 |
| KSSQSVRYESRNKNSMA | WESTRES | QQYHRLPLS | 5.50 3.64 ND | 2 of 9 (3.73) |
| KSSQSVLYESRNKNSVA | WASTREF | QQYQRLPLS | 2.28 2.18 2.40 | 9 of 9 (4.46) |
| KSSQSVLYESRNKNSVA | WRKTRES | QQHHRLPLS | ND ND ND | 0 of 9 |
| KSSQSGLYESRNKNSVT | WASTRES | EQYHRLPLS | 5.34 4.39 4.68 | 2 of 9 (3.92) |
| KSSQSVLYRSRNKVSVA | WASSRES | QQYHRLPLS | ND 3.59 4.91 | 3 of 9 (4.05) |
| HSSQSVLYESRNKNSVA | LASTRPS | QQYHRLPLS | 2.83 2.88 4.22 | 1 of 9 (4.35) |
| ASSQSVLYESRNKNSVA | AASTREN | QQYHRLPLS | -0.08 0.22 0.06 | 0 of 9 |
| KSRQSVLYESRNKNSVA | WASTRES | QIYHRAPLS | 2.62 2.15 2.31 | 0 of 9 |
| KSSQSVLYESRETNSVA | WASTRES | QQGHRLPLS | 2.45 3.06 2.57 | 2 of 9 (5.17) |
| DSSQSVLYESRNKNSVA | WAWTRQS | QQYHRLPLS | ND 3.18 ND | 2 of 9 (4.23) |
| KSSQSVLYWSRNKDSVA | WASTRES | QQYGRLPLS | 1.38 1.56 1.48 | 3 of 9 (4.10) |
| KSSQSVQYESRNENSVA | WASTRES | QQYHRLPLS | 1.69 2.11 1.96 | 0 of 9 |
| KSSDSVLYESRNKNSVA | WAPTSES | QQYHRLPLS | ND ND 4.03 | 3 of 9 (3.79) |
| KSSQSVLYESRNKNSVA | WADTRES | RQAHRLPLS | ND 3.48 ND | 1 of 9 (2.98) |
| KSSQSVLYESRNYNSVA | WASTRES | QCYHRLPLS | 0.81 1.07 0.93 | 0 of 9 |
| KSSQSVLYESRNKNSVA | WVSTDES | QQYHRIPLS | ND ND ND | 2 of 9 (3.75) |
| KSSQSVLYESRHKNSVA | WASFRES | QQYHRLPLE | 2.29 1.63 ND | 0 of 9 |
| KSSQSVLYESRNKNSVA | WAKTRES | QQYHRCILS | 2.45 2.86 2.37 | 0 of 9 |
| HTSQSVLYESRNKNSVA | WASTRES | QQYPRLPLS | ND ND ND | 0 of 9 |
| KSSQSVLYESRNVNSVA | WASTRES | QQYIQLPLS | 1.81 1.95 2.20 | 4 of 9 (3.98) |
| KSSQSDLYESRNKNSVA | WASTREG | QQYHRLPLS | 0.51 0.92 0.87 | 1 of 9 (3.08) |
| KSSQSALYESRNKNSVA | WASTRES | QQYHRGPLS | 0.70 0.92 0.84 | 3 of 9 (5.32) |
| KSSQSVLYESRHKNSVA | WASTRDS | QQYHRLPQS | ND ND 5.36 | 4 of 9 (4.03) |
| KSSQSNLLESRNKNSVA | WASTRES | GQYHRLPLS | 2.90 2.54 2.38 | 2 of 9 (3.41) |
| KVSQSGLYESRNKNSVA | WASTRES | QQYHRLPLN | -0.04 0.29 0.14 | 1 of 9 (4.67) |
| KSSQPVLYESENKNSVA | WASTRES | IQYHRLPLS | 0.76 0.94 1.13 | 0 of 9 |
| KSNQSVLYESRNKYSVA | WASTRES | QAYHRLPLS | 1.57 1.55 1.55 | 6 of 9 (3.51) |
| KSSQSVLYESRNGASVA | WASTRES | QQYSRLPLS | 0.70 0.83 0.96 | 0 of 9 |
| KSSQFVLYESRNKNSVS | WASTRES | QIYHRLPLS | ND ND ND | 1 of 9 (3.20) |
| KSSQSVRYESRNKNSVA | WASTRES | QQYHRIPLF | ND ND ND | 4 of 9 (3.98) |
| KSSQSVLYPSRNKNSVA | WASTRES | QCYHRLPLS | 0.91 1.07 1.07 | 0 of 9 |
| KPSQSVLYESRNKNSVA | WASTRES | QQYHRLPLS | 2.41 2.04 2.03 | 1 of 9 (5.16) |
| KWSQSVLYESRNMNSVA | WASTRES | NQYHRLPLS | ND ND ND | 1 of 9 (3.40) |
| KSSQSVLYASRNKNNVA | WASTRES | QQYHRLTLS | 2.31 2.24 4.29 | 0 of 9 |
| KSMQSVLYESRNKNSVA | WASTRES | QQYHRGPLL | 5.08 ND 3.69 | 2 of 9 (2.94) |
| KNSQSVLYESRNRNSVA | WASTRES | QPYHRLPLS | ND ND ND | 0 of 9 |
| KSSQSVLYRSRNQNSVA | WASTRES | QFYHRLPLS | 0.56 0.90 0.75 | 2 of 9 (4.26) |
| KSSQSVLYEYRNKNSRA | WASTRES | QYYHRLPLS | ND ND ND | 0 of 9 |
| KSLQSVLYESRNKNSVA | NASTRES | QIYHRLPLS | 1.24 0.95 1.30 | 0 of 9 |
| KSSQSVLYESRNKNSVA | WASTNES | GQYHREPLS | ND ND ND | 0 of 9 |
| KWSQSVLYESRNKNSVA | WASTRES | QYYHRKPLS | ND ND 3.27 | 0 of 9 |

The opening 4 entries, copied out:

CDR-L1,CDR-L2,CDR-L3,"replicates, log10 nM",signal with controls
KSSQSVLYESRNKNSVA,WASTRES,QQYHRRTLS,ND ND ND,0 of 9
KSSQPVLYESRAKNDVA,WASTRES,QQYHRLPLS,2.67 2.55 2.62,3 of 9 (4.10)
KSSQSVLYESRNKNSVA,WASTRES,GQYCRLPRS,4.58 5.13 ND,0 of 9
KSSQSVRYESRNKNSMA,WESTRES,QQYHRLPLS,5.50 3.64 ND,2 of 9 (3.73)